Results taken from patent US9505794B2, “Ruthenium (II) complexes, preparation and uses thereof” (priority 2014, dated 2016).

Test: Partition coefficient (log P), shake-flask method, n-octanol/water
Conditions: values of text and unnumbered table
Description: Partition coefficients (log P) for these three complexes were evaluated by shake-flask method and these were correlated to the lipophilicity of respective complexes.
n-Octanol saturated water and water saturated octanol was obtained using Millipore water stirred with n-octanol for 24 h before the two layers were separated by centrifugation (3000 rpm, 5 min). The chloride salts of complex 1 and 2 were dissolved in n-octanol saturated water giving concentrations ranging from 0.5 to 3.0 mmol. This was then mixed with water saturated n-octanol in the ratio of 1:1 (v/v). Resulting solvent mixtures were vertexed for 30 min at room temperature, and then were subjected to centrifugation (3000 rpm, 5 min) to get two distinct separate layers. Samples from each layer were obtained using a fine-gauge needle and the absorbance of respective complex in each phase determined using UV-Vis spectroscopy.

Substance: {bis-(2,2′-bpy)-(1-((4′-methyl-[2,2′-bipyridin]-4-yl)methyl)pyrimidine-2,4(1H,3H)-dione)}ruthenium(II) dichloride [Complex 2]
- log P: −0.50
